Test results reported in publication PMC12285222, “Vip3C proteins from Paenibacillus spp. for controlling lepidopteran crop pests” (2025).

Molecular target: Vip3Cb1 protoxin with two engineered cysteine mutations (Cys162 and Cys164) (Paenibacillus sp. strain DSC004343)
Test: cryo-EM structure

“Vip3Cb1 protoxin with two engineered cysteine mutations (Cys162 and Cys164) (natural protein)” was tested, and the stoichiometry N was 4.
